The structures appear in SMILES notation. Only a part is listed here, and it is no random draw. Some results for these compounds are left out of this collection, so the calls shown say nothing about other tests. The source made the active and inactive calls.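 How the source made its calls: active means plate z-score of nuclear minus cytoplasmic receptor signal below a set negative limit, without overly bright fluorescence or cell loss (cut at about -3.5 in these data, passing the limit was not always enough); inactive means the rest, inconclusive results apart.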

The assay is described as follows: inhibitors of GR-EGFP nuclear translocation, primary screen, dynein cargo transport inhibitor project, imaging, high-content, 3617.4 mouse cells (AID 1381). Conditions: hits give low values, stimulated with dexamethasone, 1 µM; at 20 µM unless noted.
As for `O=C(NCC1(N2CCCCC2)CCCCC1)c1cc([N+](=O)[O-])ccc1Cl`, the z-score was inactive: -1.05.

In the case of `CC(C)N1C(=O)CC2(CCN(CCOC(=O)C(O)(c3ccccc3)c3ccccc3)CC2)C1=O`, the z-score was inactive: 0.0909.

As to `CCN(CC)CC(C)C(C)OC(=O)C(O)(c1ccccc1)c1ccccc1` (stereo unspecified), the z-score is inactive: -0.399.

Regarding `Cc1ccccc1C(=O)NCC1(N2CCCCC2)CCCCC1`, the z-score was inactive: 0.258.

For the compound `CN(C)C1CCCC1OC(=O)C(O)(c1ccccc1)c1ccccc1` (stereo unspecified), the z-score is inactive: -0.0946.

With `C=CCN1CCN(CCOC(=O)C(O)(c2ccccc2)c2ccccc2)CC1`, the z-score is inactive: 0.0497.

For the compound `CCN1CCCC(OC(=O)C2(O)c3ccccc3C=Cc3ccccc32)C1` (stereo unspecified), the z-score is inactive: 0.126.

For `COc1cccc(C(=O)NCC2(N3CCCCC3)CCCCC2)c1`, the z-score was inactive: -0.266.

Take `O=C(OC1CN2CCC1CC2)C(CO)(c1ccccc1)c1ccccc1` (stereo unspecified): the z-score was inactive: -0.336 [at 50 µM].

Regarding `COc1ccc(Br)c(C(=O)NCC2(N3CCCCC3)CCCCC2)c1`, the z-score was inactive: -1.35.

Turning to `CN(C)c1cccc(C(=O)NCC2(N(C)C)CCCCC2)c1`, the z-score is inactive: -0.589.

The values above are taken from PubChem BioAssay AID1381 (University of Pittsburgh Molecular Library Screening Center, 2008).
